Amino acid sequences for entries named in this document (tags omitted). Residues count along the entry.
UniProt P56817, 46-501: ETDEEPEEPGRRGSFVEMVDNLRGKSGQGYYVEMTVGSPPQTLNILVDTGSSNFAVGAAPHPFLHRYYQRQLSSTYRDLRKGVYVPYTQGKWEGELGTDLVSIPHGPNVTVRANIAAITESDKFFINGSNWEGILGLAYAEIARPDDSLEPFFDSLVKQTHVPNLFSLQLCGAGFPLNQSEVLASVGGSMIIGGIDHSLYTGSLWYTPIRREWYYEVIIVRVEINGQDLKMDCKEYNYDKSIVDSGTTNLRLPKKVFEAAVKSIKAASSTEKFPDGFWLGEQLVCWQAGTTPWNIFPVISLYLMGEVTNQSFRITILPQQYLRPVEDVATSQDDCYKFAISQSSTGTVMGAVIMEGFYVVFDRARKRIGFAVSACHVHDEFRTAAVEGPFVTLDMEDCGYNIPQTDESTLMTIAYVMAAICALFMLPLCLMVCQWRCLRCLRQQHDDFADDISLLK

In patent publication US9296734B2 (AMGEN INC., priority 2013, dated 2016):

Assays:
[1] = biological target: Beta Secretase enzyme (BACE) (Homo sapiens (Human), UniProt P56817); assay: In vitro enzymatic BACE FRET assay; format: biochemical; details: read-out: BACE 1 FRET assay IC50
In short: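 A quenched fluorophore-peptide spanning the BACE cleavage site served as substrate at 50 nM, with one-hour incubation in pH 4.2 acetate buffer containing 100 uM genapol and 10% DMSO final. Fluorescence was measured after quenching with Tris to neutral pH.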

[2] = test system: Aβ40 in conditioned medium of cells stably expressing Amyloid Precursor Protein (APP); assay: In vitro BACE cell-based assay (Aβ40 sandwich ELISA); details: Homo sapiens, read-out: HEK cell assay IC50
In short: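 Aβ40 in supernatants was measured by time-resolved fluorescence sandwich ELISA using pAb40 capture and biotinylated 6E10 detection, with antibody incubations at 4 °C. Stable APP cells were exposed to compounds for 24 h in a 10-point series (top dose 100 or 10 µM, 0.1% DMSO). IC50 was fitted from the concentration-response.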

[3] = average IC50, BACE enzyme assay
[4] = HEK293, average IC50, HEK cell assay
[5] = HEK293, average IC50, HEK cells

NC1=N[C@](CF)(c2cc(NC(=O)c3ncc(Cl)cc3F)cc(F)c2F)C[C@@H](C(F)(F)F)O1 [Example 233, N-(3-((4S,6S)-2-amino-4-(fluoromethyl)-6-(trifluoromethyl)-5,6-dihydro-4H-1,3-oxazin-4-yl)-4,5-difluorophenyl)-5-chloro-3-fluoropicolinamide]
IC50 ([1]; average): 29 nM | IC50 ([2]; HEK293, HEK cells, average): 78 nM

NC1=N[C@](CF)(c2cc(Oc3ccccn3)ccc2F)C[C@@H](C(F)(F)F)O1 [Example 101, (4S,6S)-4-(2-fluoro-5-(pyridin-2-yloxy)phenyl)-4-(fluoromethyl)-6-(trifluoromethyl)-5,6-dihydro-4H-1,3-oxazin-2-amine]
IC50 [1, 3]: 560 nM | IC50 [2, 4]: 2110 nM

COc1ccc(C(=O)Nc2cnc(F)c([C@]3(C)C[C@@H](C(F)(F)F)OC(N)=N3)c2)nc1 [Example 63, N-(5-((4S,6S)-2-amino-4-methyl-6-(trifluoromethyl)-5,6-dihydro-4H-1,3-oxazin-4-yl)-6-fluoropyridin-3-yl)-5-methoxypicolinamide]
IC50 [1, 3]: 119 nM | IC50 [2, 4]: 24 nM

COc1cnc2c(Nc3ccc(F)c([C@]4(CF)C[C@@H](C(F)(F)F)OC(N)=N4)c3)ncnc2c1 [Example 13, (4S,6S)-4-(2-fluoro-5-((7-methoxypyrido[3,2-d]pyrimidin-4-yl)amino)phenyl)-4-(fluoromethyl)-6-(trifluoromethyl)-5,6-dihydro-4H-1,3-oxazin-2-amine]
IC50 ([1]; average IC50): 72.2 nM | IC50 [2, 5]: 95.9 nM

Cc1nc(OCC(F)(F)F)cnc1C(=O)Nc1cc(F)c(F)c([C@]2(C)C[C@@H](C(F)(F)F)OC(N)=N2)c1 [Example 197, N-(3-((4S,6S)-2-amino-4-methyl-6-(trifluoromethyl)-5,6-dihydro-4H-1,3-oxazin-4-yl)-4,5-difluorophenyl)-3-methyl-5-(2,2,2-trifluoroethoxy)pyrazine-2-carboxamide]
IC50 ([1]; average): 27 nM | IC50 ([2]; HEK293, HEK cells, average): 49 nM

C[C@@]1(c2cc(NC(=O)c3ccc(Cl)cn3)cc(Cl)c2F)C[C@@H](C(F)(F)F)OC(N)=N1 [Example 207, N-(3-((4S,6S)-2-amino-4-methyl-6-(trifluoromethyl)-5,6-dihydro-4H-1,3-oxazin-4-yl)-5-chloro-4-fluorophenyl)-5-chloropicolinamide]
IC50 ([1]; average): 11 nM | IC50 ([2]; HEK293, HEK cells, average): 20 nM

N#Cc1cncc(-c2ccc(F)c([C@]3(CF)C[C@@H](C(F)(F)F)OC(N)=N3)c2)c1 [Example 103, 5-(3-((4S,6S)-2-amino-4-(fluoromethyl)-6-(trifluoromethyl)-5,6-dihydro-4H-1,3-oxazin-4-yl)-4-fluorophenyl)nicotinonitrile]
IC50 ([1]; average IC50): 3420 nM | IC50 [2, 5]: 3850 nM

NC1=N[C@](CF)(c2cc(NC(=S)c3ccc(Cl)cn3)ccc2F)C[C@@H](C(F)(F)F)O1 [Example 91, N-(3-((4S,6S)-2-amino-4-(fluoromethyl)-6-(trifluoromethyl)-5,6-dihydro-4H-1,3-oxazin-4-yl)-4-fluorophenyl)-5-chloropyridine-2-carbothioamide]
IC50 ([1]; average): 86 nM | IC50 ([2]; HEK293, HEK cells, average): 548 nM

Like-named read-outs stand apart in the source and are kept apart here.
